Protein sequences, listed by entry. Tags and fused reporters are not part of them.
UniProt P22607, whole entry: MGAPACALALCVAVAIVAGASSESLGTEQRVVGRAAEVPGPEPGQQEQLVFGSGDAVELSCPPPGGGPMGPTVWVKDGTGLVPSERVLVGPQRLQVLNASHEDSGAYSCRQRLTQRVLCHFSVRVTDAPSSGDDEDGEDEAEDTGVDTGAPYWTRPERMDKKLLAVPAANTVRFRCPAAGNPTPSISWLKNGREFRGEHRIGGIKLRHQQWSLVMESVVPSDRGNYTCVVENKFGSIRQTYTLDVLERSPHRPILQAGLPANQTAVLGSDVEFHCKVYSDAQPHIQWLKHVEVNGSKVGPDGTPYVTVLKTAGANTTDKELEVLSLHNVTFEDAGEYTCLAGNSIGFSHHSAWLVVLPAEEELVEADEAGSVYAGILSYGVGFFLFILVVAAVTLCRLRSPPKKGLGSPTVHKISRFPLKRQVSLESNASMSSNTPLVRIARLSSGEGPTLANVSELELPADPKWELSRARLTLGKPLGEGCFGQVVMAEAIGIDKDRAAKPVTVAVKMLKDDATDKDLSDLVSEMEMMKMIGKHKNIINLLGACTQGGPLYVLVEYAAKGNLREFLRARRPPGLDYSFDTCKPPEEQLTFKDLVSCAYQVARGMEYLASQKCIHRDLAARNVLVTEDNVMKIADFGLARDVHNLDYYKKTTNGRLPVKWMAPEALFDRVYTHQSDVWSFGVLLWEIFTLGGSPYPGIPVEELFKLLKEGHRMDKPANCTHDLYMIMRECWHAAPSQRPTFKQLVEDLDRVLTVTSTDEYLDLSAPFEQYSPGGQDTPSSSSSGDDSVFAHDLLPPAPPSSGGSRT

In BindingDB's records for patent US12180207 (Array Biopharma, 2024):

Experiments:
[1] = target: T1, Fibroblast growth factor receptor 3 (Homo sapiens, UniProt P22607); assay: FGFR3 Enzyme Activity Assay
Experimental: FGFR3 kinase activity was measured by the Invitrogen LanthaScreen™ Assay technology which directly measures the amount of substrate phosphorylation by TR-FRET using a fluorescently-labeled peptide and Europium-labeled antibody. Briefly, 750 μM N-terminal GST-HIS6 fusion protein with a 3C cleavage site recombinant human FGFR3 (amino acids R397-T806) (ProQinase Cat. No. 1068-0000-1) was incubated with 100 nM Alexa Fluor 647-Poly-GT Peptide Substrate (Life Technologies Cat. No. PV5836) and 25 μM ATP along with test compound in a buffer consisting of 250 mM HEPES, 25 mM MgCl2, 0.05% TritonX-100, pH 7.5, and 2% DMSO. Compounds were typically prepared in a threefold serial dilution in DMSO and added to the assay to give the appropriate final concentration. After a 10 minute incubation at 22° C., an equal volume of 2 nM LanthaScreen Eu-PY20 Antibody (Life Technologies Cat. No. PV5691) and 10 mM EDTA were added to quench the kinase reaction and start the detection reaction. After an additional 60 minute incubation at 22° C., the reaction was measured using a PerkinElmer EnVision multimode plate reader via TR-FRET dual wavelength detection, and the percent of control (POC) calculated using a ratiometric emission factor. 100 POC was determined using no test compounds and 0 POC was determined using no enzyme. […]

[2] = target: T1, Fibroblast growth factor receptor 3; assay: Enzyme Assay
Experimental: he potency of compounds inhibiting human isoforms of FGFR kinase was determined using Life Technologies' Homogeneous Time Resolved Fluorescence (HTRF)-based binding assay technology. […] After a 60 minute incubation at 22° C., the extent of tracer displacement was determined using a PerkinElmer EnVision multimode plate reader via HTRF dual wavelength detection, and the percent of control (POC) was calculated using a ratiometric emission factor. One hundred POC was determined using no test compound, and 0 POC was determined in the presence of 1 μM of an appropriate control inhibitor.

IC50 [1] [nM]	IC50 [2] [nM]	Structure (SMILES)
2	2	C=CS(=O)(=O)N[C@H]1C[C@@H](C(=O)N2CCC(n3cc(-c4cc(OC)c5c(C#N)cnn5c4)cn3)CC2)C1 [US12180207, Example 193]
7	–	C=CS(=O)(=O)N[C@H]1C[C@H](C(=O)N2CCC(n3cc(-c4cc(OC)c5c(C#N)cnn5c4)cn3)CC2)C1 [US12180207, Example 194]
